Assay results published in US10072293B2, “Systems, models and methods for identifying and evaluating skin-active agents effective for treating dandruff/seborrheic dermatitis” (The Procter and Gamble Company, priority 2011, dated 2018).
Where “and” joins values, the source holds several entries; their conditions need not be identical. Equal entries are not always repeated.

System: reconstituted human epidermis (RHE)
Test: Connectivity map linkage scores, inflammatory skin disorder signature (top 70 up / 70 down), RHE instances
Type: cell-based
Parameters: scale not given here
Settings: 20 ng/ml
From the text: Gene expression data from five inflammatory skin disorders (acne, atopic dermatitis, dandruff, eczema and psoriasis) were collected from a clinical genomics study and published studies. The raw expression data were used to produce a rank-ordered list of most differentially regulated genes associated with inflammatory skin disorders.
The derived gene signature was used to query a provided database comprising gene expression data from clinical genomics studies of a widely different inflammatory skin disorders, published in vitro genomics studies of disparate inflammatory skin disorders, and genomics data from an internal in vitro model of dandruff inflammatory pathology (human organotypic, MatTek, cultures). […] Thus, the internal model was validated as being useful for study of inflammatory cascades and other gene expression alterations associated with inflammatory skin disorders.

B1: IL20: interleukin (protein, UniProt Q9NYY1 25-176, looked up)
Interleukin-20: LKTLNLGSCVIATNLQEIRNGFSEIRGSVQAKDGNIDIRILRRTESLQDTKPANRCCLLRHLLRLYLDRVFKNYQTPDHYTLRKISSLANSFLTIKKDLRLCHAHMTCHCGEEAMKKYSQILSHFEKLEPQAAVVKALGELDILLQWMEETE
With B1 the Score was 0.731 and 0.702 and 0.668 and the “Up Score” value was 0.424 and 0.333 and 0.436.
